# Results reported in patent US10934303B2, “Aryl ethene derivative and pharmaceutical composition containing same as active ingredient” (priority 2016, dated 2021).
# Chains of the proteins cited; added tags and fusions are not shown. Lines headed by an entry give the natural chain unless they say otherwise; changes in a name come on top. Residues count along the entry.
# UniProt O95718: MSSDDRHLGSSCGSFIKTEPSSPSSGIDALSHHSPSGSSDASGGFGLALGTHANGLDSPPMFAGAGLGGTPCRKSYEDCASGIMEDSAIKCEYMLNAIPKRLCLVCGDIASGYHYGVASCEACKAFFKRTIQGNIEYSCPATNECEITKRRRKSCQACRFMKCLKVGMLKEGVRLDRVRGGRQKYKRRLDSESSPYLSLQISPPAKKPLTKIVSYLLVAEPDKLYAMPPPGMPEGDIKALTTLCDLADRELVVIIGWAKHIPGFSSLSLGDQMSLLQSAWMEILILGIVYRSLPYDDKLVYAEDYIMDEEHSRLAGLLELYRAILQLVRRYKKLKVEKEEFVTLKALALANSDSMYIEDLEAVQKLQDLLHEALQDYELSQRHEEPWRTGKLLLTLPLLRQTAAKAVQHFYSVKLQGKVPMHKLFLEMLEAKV
# UniProt P11474, 193-421: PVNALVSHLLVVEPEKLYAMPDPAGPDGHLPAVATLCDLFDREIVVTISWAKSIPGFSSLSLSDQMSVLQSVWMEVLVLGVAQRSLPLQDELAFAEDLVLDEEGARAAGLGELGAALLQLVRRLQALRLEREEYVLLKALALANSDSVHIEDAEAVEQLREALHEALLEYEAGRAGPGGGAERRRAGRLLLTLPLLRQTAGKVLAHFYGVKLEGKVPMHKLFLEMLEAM
# UniProt P03372, whole entry, looked up: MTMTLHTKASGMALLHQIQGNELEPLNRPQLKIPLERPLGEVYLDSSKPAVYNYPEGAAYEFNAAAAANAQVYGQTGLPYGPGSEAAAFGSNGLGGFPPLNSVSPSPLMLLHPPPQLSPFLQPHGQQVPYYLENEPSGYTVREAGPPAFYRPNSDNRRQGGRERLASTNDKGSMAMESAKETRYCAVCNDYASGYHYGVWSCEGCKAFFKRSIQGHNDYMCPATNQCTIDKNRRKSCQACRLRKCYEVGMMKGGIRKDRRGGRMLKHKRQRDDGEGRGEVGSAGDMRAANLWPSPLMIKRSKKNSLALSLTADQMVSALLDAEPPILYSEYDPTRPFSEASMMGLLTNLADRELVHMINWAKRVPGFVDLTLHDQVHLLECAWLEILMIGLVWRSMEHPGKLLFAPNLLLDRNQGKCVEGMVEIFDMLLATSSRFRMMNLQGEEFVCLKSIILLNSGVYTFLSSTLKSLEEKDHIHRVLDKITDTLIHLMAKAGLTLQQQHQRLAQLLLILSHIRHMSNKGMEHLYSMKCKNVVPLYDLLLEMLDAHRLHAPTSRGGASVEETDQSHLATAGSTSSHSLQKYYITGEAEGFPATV
# Columns and labels:
# ERRβ = ERRβ (Homo sapiens, UniProt O95718); settings: TR-FRET, PGC1a coactivator; read-out: Binding Assay, IC50 ERRβ
# GST-bound ERR alpha LBD = GST-bound ERR alpha LBD (Homo sapiens (Human), UniProt P11474); experiment: biochemical; assay type: binding
# [1] = molecular target: GST-bound ER alpha ligand-binding domain (LBD) (Homo sapiens (Human), UniProt P03372); experiment: biochemical
smiles,measurement,setting,value
"CC(C)N1CCN(c2ccc(/C(=C(/CCCO)c3ccccc3)c3ccc(NS(C)(=O)=O)cc3)cc2)CC1 [Compound 27a, (E)-N-(4-(5-hydroxy-1-(4-(4-isopropylpiperazin-1-yl)phenyl)-2-phenylpent-1-en-1-yl)phenyl)methanesulfonamide]",IC50,ERRβ,0.07 µM
same,IC50,GST-bound ERR alpha LBD,4.32 µM
same,IC50,[1],0.413 µM
CN1CCC[C@H]1COc1ccc(/C(=C(/CCCO)c2ccccc2)c2ccc(Br)cc2)cc1 [Compound 13b],IC50,ERRβ,3.93 µM
same,IC50,[1],> 10 µM
"CN(C)CCOc1ccc(/C(=C(/CCCO)c2ccccc2)c2ccc(O)cc2)cc1 [GSK5182, (Z)-4-(1-(4-(2-(dimethylamino)ethoxy)phenyl)-5-hydroxy-2-phenylpent-1-en-1-yl)phenol, reference compound]",IC50,ERRβ,> 10 µM
